Biological target: Metabotropic glutamate receptor 5 (Homo sapiens, UniProt P41594)
Assay: Activity at human mGluR5 assessed as effect on glutamate-induced calcium ion mobilization by FLIPR
Format: functional

Protein sequences, listed by entry. Tags and fused reporters are not part of them.
UniProt P41594, whole entry: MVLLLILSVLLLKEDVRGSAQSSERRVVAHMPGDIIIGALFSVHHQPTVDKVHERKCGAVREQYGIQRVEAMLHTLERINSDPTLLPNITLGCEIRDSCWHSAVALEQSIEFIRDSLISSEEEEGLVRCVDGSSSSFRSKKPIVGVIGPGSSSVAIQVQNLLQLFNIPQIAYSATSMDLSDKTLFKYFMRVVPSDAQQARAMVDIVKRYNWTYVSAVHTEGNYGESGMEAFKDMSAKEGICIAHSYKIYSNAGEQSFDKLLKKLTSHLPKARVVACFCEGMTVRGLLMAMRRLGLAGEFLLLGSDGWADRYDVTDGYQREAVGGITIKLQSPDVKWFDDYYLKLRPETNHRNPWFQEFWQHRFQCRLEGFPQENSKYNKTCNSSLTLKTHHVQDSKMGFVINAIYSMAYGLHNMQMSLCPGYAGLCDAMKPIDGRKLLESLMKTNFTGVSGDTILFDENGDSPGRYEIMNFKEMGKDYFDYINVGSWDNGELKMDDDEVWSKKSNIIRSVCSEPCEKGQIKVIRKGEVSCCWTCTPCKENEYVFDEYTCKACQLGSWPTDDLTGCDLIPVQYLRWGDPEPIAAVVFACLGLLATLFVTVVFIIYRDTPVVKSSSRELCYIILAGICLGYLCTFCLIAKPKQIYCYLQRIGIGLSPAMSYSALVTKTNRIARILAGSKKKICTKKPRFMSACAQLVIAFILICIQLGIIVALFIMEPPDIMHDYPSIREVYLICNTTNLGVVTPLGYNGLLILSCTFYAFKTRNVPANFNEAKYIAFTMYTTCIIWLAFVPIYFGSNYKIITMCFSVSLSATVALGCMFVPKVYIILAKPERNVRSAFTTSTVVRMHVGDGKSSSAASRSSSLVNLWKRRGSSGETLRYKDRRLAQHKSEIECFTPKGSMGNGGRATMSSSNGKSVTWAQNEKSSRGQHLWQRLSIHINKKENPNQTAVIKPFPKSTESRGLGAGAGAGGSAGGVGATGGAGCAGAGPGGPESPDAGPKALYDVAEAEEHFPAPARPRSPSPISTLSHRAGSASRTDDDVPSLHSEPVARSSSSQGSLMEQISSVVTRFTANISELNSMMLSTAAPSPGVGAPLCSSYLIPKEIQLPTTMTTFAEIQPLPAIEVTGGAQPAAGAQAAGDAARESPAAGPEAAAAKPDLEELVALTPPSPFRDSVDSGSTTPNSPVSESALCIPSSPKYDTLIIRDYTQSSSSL

`Cc1nc(C#Cc2cccnc2)cs1` was tested, and the IC50 was 77 nM.
